Here are results for nine compounds from patent US11485745B2, “Amido spirocyclic amide and sulfonamide derivatives” (Valo Health, Inc., priority 2012, dated 2022).

The chains behind the UniProt entries cited, without tags or fusion partners. Where a name states a change or a piece, a line headed by the entry shows the natural chain unless it says otherwise.
UniProt P43490: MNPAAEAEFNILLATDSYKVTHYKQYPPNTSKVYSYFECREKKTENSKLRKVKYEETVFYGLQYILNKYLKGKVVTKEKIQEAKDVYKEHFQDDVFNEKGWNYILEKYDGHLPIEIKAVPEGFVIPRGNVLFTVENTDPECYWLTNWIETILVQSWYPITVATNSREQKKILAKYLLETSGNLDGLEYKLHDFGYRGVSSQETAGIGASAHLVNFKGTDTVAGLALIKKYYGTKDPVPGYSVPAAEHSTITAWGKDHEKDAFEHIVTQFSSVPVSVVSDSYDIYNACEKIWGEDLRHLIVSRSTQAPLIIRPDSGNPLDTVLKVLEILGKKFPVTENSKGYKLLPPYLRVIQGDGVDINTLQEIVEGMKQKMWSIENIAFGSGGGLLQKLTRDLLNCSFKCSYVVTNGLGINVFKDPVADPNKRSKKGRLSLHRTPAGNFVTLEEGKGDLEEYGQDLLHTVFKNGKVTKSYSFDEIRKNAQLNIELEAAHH

Values joined by “and” are separate entries in the source; they are usually repeats but may differ in a detail not shown here. Equal entries are not always repeated.

One test deals with A2780 cells. Briefly: In-Vitro Cell Proliferation Assay (A2780, sulforhodamine B, 72 hours). The test is classed as cell-based. The following applies: Homo sapiens, A2780, 72 h, SRB.
For the compound `CC(=O)N1CCC2(CC1)CC2CNC(=O)c1cc2cnccc2[nH]1` (stereo not drawn) [Example 16, N-[(8-acetyl-8-azaspiro[2.5]octan2-yl)methyl]-1H-pyrrolo[3,2-c]pyridine-2-carboxamide], the concentration for half-maximal inhibition (IC50) was found to be 2 µM.

The next test has as its target Recombinant His-tagged NAMPT (Homo sapiens (Human), UniProt P43490). Briefly: Biochemical Inhibition Assay (NAMPT enzymatic reaction, NMN quantified by mass spectrometry).
Details: not given
Regarding `CC(C)(C)CS(=O)(=O)N1CCC2(CC1)CC2CNC(=O)N1Cc2ccncc2C1` (stereo not drawn) [Example 381, N-[[6-(2,2-dimethylpropylsulfonyl)-6-azaspiro[2.5]octan-2-yl]methyl]-1,3-dihydropyrrolo[3,4-c]pyridine-2-carboxamide], the concentration for half-maximal inhibition (IC50) is 0.0233 µM.
With `O=C(CCc1ccccc1)N1CCC2(CC1)CC2CNC(=O)N1Cc2ccncc2C1` (stereo not drawn) [Example 199, N-[[6-(3-phenylpropanoyl)-6-azaspiro[2.5]octan-2-yl]methyl]-1,3-dihydropyrrolo[3,4-c]pyridine-2-carboxamide], the IC50 amounted to 0.0144 µM.
As for `CN(C)Cc1ccc(C(=O)N2CCC3(CC2)CC3CNC(=O)c2cc3ccncc3o2)cc1` (stereo not drawn) [Example 71, N-[[6-[4-[(dimethylamino)methyl]benzoyl]-6-azaspiro[2.5]octan-2-yl]methyl]furo[2,3-c]pyridine-2-carboxamide], the IC50 amounted to 0.0641 µM.
On to `CC(C)C(=O)N1CCC2(CC1)CC2CNC(=O)c1cc2cnccc2[nH]1` (stereo not drawn) [Example 12], for which the half-maximal inhibitory concentration (IC50) was 0.417 µM and 0.398 µM.
On the same count and under the same terms, the value for `CC(C)(C)CS(=O)(=O)N1CCC2(CC1)CC2CNC(=O)c1cc2ccncc2[nH]1` (stereo not drawn) [Example 379, N-[[6-(2,2-dimethylpropylsulfonyl)-6-azaspiro[2.5]octan-2-yl]methyl]-1H-pyrrolo[3,2-c]pyridine-2-caarboxamide] was 1.47 µM.
On to `CC1(C)CC1C(=O)N1CCC2(CC1)CC2CNC(=O)N1Cc2ccncc2C1` (stereo not drawn) [Example 377, N-[[6-(2,2-dimethylcyclopropanecarbonyl)-6-azaspiro[2.5]octan-2-yl]methyl]-1,3-dihydropyrrolo[3,4-c]pyridine-2-carboxamide], for which the IC50 came to 0.0149 µM.
Consider `CCS(=O)(=O)N1CCC2(CC1)CC2CNC(=O)c1cc2cnccc2[nH]1` (stereo not drawn) [Example 14, N-[(8-ethylsulfonyl-8-azasprio[2.5]octan-2-yl)methyl]-1H-pyrrolo[3,2-c]pyridine-2-carboxamide], for which the IC50 was 0.325 µM and 0.988 µM.
In the case of `O=C(CCC1CCCCC1)N1CCC2(CC1)CC2CNC(=O)N1Cc2ccncc2C1` (stereo not drawn) [Example 197, N-[[6-(3-cyclohexylpropanoyl)-6-azaspiro[2.5]octan-2-yl]methyl]-1,3-dihydropyrrolo[3,4-c]pyridine-2-carboxamide], the half-maximal inhibitory concentration (IC50) is 0.0111 µM.

For orientation: IC50 means the concentration at which inhibition is half-maximal.
